The values that follow are results of earlier work, collected in publication PMC3484071.

Broadly, the Kd is a measure of binding affinity in units of concentration.

For this data set, the target named is smooth muscle myosin light chain kinase peptide smMLCK peptide (UniProt Q15746).

Turning to Calmodulin (from UniProt P0DP23), the dissociation constant Kd was 1 nM.
